Molecular target: T1, muscarinic receptors (ileum) (Cavia porcellus, UniProt H0W1Z3)
T1 construct: from tissue; host or cells: isolated ileum of the guinea pig
Assay: Dissociation constants (KB values) on the isolated ileum
Conditions: guinea pig, methacholine, 30 minutes contact

Sequences of proteins named here, by UniProt entry; tags and fusion partners are left off. Residues count along the entry.
UniProt H0W1Z3, 1-590: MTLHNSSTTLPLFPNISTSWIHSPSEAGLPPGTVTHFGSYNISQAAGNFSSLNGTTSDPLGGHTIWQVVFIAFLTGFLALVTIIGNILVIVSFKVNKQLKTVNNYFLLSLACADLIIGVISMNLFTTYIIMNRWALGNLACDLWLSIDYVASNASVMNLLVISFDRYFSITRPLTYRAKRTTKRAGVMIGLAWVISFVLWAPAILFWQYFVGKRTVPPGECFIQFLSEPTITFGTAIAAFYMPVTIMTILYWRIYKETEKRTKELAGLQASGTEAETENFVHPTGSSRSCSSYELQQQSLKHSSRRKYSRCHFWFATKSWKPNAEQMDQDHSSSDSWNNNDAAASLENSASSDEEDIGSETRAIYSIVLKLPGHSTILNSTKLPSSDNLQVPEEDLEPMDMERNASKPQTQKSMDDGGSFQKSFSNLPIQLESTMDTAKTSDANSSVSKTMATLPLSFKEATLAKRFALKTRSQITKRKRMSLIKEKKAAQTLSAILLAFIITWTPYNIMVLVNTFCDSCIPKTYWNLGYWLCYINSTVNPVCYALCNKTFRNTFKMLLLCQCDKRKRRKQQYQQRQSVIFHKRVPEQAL

SMILES: CCN(CC)CC1CCCCN1CC(=O)N1c2ccccc2C(=O)Nc2cccnc21 (stereo not shown) [Substance X, 11-[[2-[(diethylamino)methyl]-1-piperidinyl]acetyl]-5,11-dihydro-6H-pyrido[2,3-b][1,4]benzodiazepin-6-one]
- Kb: 617 nM

Reference: patent US4931436A, “Condensed diazepinones, processes for preparing them and pharmaceutical compositions containing these compounds” (Dr. Karl Thomae GmbH, priority 1988, dated 1990)
